# Tests used:
# Sequences of proteins named here, by UniProt entry; tags and fusion partners are left off.
# UniProt P47747, whole entry: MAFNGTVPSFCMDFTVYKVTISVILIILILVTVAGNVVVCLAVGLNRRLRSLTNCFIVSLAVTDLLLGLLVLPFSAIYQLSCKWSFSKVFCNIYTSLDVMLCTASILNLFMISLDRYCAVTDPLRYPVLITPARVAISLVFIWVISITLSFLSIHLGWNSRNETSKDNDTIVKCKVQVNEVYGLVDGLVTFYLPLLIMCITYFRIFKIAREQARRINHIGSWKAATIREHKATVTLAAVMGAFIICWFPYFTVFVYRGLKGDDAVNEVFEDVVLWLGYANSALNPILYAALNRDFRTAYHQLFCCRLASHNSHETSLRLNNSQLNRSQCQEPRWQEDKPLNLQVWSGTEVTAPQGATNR
# [1] = biological target: Histamine H2 receptor (Cavia porcellus) (UniProt P47747); assay: Agonist activity at histamine H2 receptor in spontaneous beating guinea pig right atrium assessed as increase in heart beat at 30 uM relative to histamine; assay type: functional, tissue-based; details: Right cardiac atrium
# [2] = biological target: Histamine H2 receptor (Cavia porcellus) (UniProt P47747); assay: Agonist activity at guinea pig histamine H2 receptor stably transfected in HEK293T cells co-expressing NlucN-mGs/gpH2R-NlucC assessed as maximum efficacy at 100 uM by mini-G protein recruitment assay relative to histamine; assay type: functional, cell-based
SMILES,Emax [1],Emax [2]
CCCCCNC(=O)/N=C(\N)NCCCc1nnc(N)s1.O=C(O)C(F)(F)F.O=C(O)C(F)(F)F,109%,94%
Cc1ccc(CC(C)CNC(=O)/N=C(\N)NCCCc2nnc(N)s2)cc1.O=C(O)C(F)(F)F.O=C(O)C(F)(F)F (centres undefined),102%,92%

# — ChEMBL document CHEMBL5149991 (J Med Chem, 2021)
